Amino acid sequences for entries named in this document (tags omitted).
UniProt O14842, whole entry: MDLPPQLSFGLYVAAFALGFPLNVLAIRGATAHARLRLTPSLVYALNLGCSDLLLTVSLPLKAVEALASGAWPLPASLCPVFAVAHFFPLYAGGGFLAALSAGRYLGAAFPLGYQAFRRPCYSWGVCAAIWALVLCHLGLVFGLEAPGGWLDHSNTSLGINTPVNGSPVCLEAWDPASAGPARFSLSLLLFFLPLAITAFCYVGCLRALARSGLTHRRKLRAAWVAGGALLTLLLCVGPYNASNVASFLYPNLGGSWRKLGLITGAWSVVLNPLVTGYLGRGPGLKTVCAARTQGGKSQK

According to patent US8748462B2, “Spirocyclic GPR40 modulators” (Amgen Inc., priority 2008, dated 2014):

What was measured:
human GPR40 [1] = biological target: T1, human GPR40 (Homo sapiens, UniProt O14842); experiment: Cell-based aequorin assay; details: read-out: Aequorin EC50; CHO cells stably transfected with GPR40 and aequorin; 0.01% HSA
human GPR40 [2] = biological target: T1, human GPR40; experiment: Inositol phosphate accumulation assay; type: cell-based; details: read-out: IP3 EC50; A9 cell line stably transfected with GPR40; 1 hour at 37° C.

| EC50 (human GPR40 [1]) [nM] | EC50 (human GPR40 [2]) [nM] | SMILES |
| --- | --- | --- |
| 100 to 1000 | – | COc1ccc(F)c(-c2ccc(COc3ccc4c(c3)C3(CC4)C(C)C3C(=O)O)cc2C2CCCC2(C)C)c1 (single isomer, unassigned) [Example 141] |
| 100 to 1000 | – | COc1ccc(F)c(-c2ccc(COc3ccc4c(c3)C3(CC4)C(C)C3C(=O)O)cc2C2CCCC2(C)C)c1 (single isomer, unassigned) [Example 142] |
| 1000 to 10000 | – | COc1ccc(F)c(-c2ccc(COc3ccc4c(c3)C3(CC4)C(C)C3C(=O)O)cc2C2CCCC2(C)C)c1 (single isomer, unassigned) [Example 143] |
| 100 to 1000 | 10 to 100 | COc1ccc(F)c(-c2ccc(COc3ccc4c(c3)C3(CC4)C(C)C3C(=O)O)cc2C2CCCC2(C)C)c1 (single isomer, unassigned) [Example 144] |
